Source: ChEMBL document CHEMBL4364301 (Eur J Med Chem, 2019)

What was measured:
Assay type in all cases: functional
[1] = system: VCaP; assay: Antiproliferative activity against human VCaP cells assessed as reduction in cell growth incubated for 96 hrs by propidium iodide based 2D monolayer assay
In short: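 VCaP cells in RPMI 1640 with 10% FCS at 37 °C, 5% CO2, seeded 4,000–20,000 cells/well and left 24 h before dosing. Compounds from DMSO stocks were diluted in half-log steps in medium, 10 concentrations 0.0032–100 μM, triplicate wells, max 0.3% DMSO. After 96 h, cells were washed, stained with 7 μg/ml propidium iodide plus 0.1% Triton X-100 for 1–2 h at room temperature, and fluorescence read at ex 530/em 620 nm.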

[2] = system: CWR22R; assay: Antiproliferative activity against human 22Rv1 cells assessed as reduction in cell growth incubated for 96 hrs by propidium iodide based 2D monolayer assay
In short: (§1)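 After 24 h recovery, compound in medium or medium alone (control wells) was added at 10 half-log concentrations from 0.0032 to 100 µM, in triplicate, with at most 0.3% DMSO. After 96 h, wells were PBS-washed, stained with 7 µg/ml PI and 0.1% Triton X-100, and fluorescence read at 530/620 nm. IC50 came from a 4-parameter fit, geometric mean.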

[3] = system: LNCaP; assay: Antiproliferative activity against human LNCAP cells assessed as reduction in cell growth incubated for 96 hrs by propidium iodide based 2D monolayer assay; in short: as §1
[4] = system: DU-145; assay: Antiproliferative activity against human DU145 cells assessed as reduction in cell growth incubated for 96 hrs by propidium iodide based 2D monolayer assay; in short: as §1

Measured: Activity

CC1(C)C(=O)N(c2ccc(C#N)cc2C(F)(F)F)C(=S)N1c1cccc(S(F)(F)(F)(F)F)c1
active: [1] Dose-dependent effect | [2] Dose-dependent effect | [3] Dose-dependent effect | [4] Dose-dependent effect

CC1(C)C(=O)N(c2cccc(S(F)(F)(F)(F)F)c2)C(=S)N1c1ccc(C(F)(F)F)cc1
active: [1] Dose-dependent effect | [2] Dose-dependent effect | [3] Dose-dependent effect | [4] Dose-dependent effect

CC1(C)C(=O)N(c2ccc([N+](=O)[O-])c(C(F)(F)F)c2)C(=S)N1c1cccc(S(F)(F)(F)(F)F)c1
active: [1] Dose-dependent effect | [2] Dose-dependent effect | [3] Dose-dependent effect | [4] Dose-dependent effect

CC1(C)C(=O)N(c2ccc([N+](=O)[O-])c(C(F)(F)F)c2)C(=S)N1c1ccc(S(F)(F)(F)(F)F)cc1
active: [1] Dose-dependent effect | [2] Dose-dependent effect | [3] Dose-dependent effect | [4] Dose-dependent effect

CC1(C)C(=O)N(c2ccc(C#N)cc2C(F)(F)F)C(=S)N1c1ccc(S(F)(F)(F)(F)F)cc1
active: [1] Dose-dependent effect | [2] Dose-dependent effect | [3] Dose-dependent effect | [4] Dose-dependent effect

CC1(C)C(=O)N(c2ccc([N+](=O)[O-])cc2C(F)(F)F)C(=S)N1c1ccc(S(F)(F)(F)(F)F)cc1
active: [1] Dose-dependent effect | [2] Dose-dependent effect | [3] Dose-dependent effect | [4] Dose-dependent effect

CC1(C)C(=O)N(c2ccc(C#N)c(C(F)(F)F)c2)C(=S)N1c1cccc(S(F)(F)(F)(F)F)c1
active: [1] Dose-dependent effect | [2] Dose-dependent effect | [3] Dose-dependent effect | [4] Dose-dependent effect

CNC(=O)c1ccc(N2C(=S)N(c3cccc(S(F)(F)(F)(F)F)c3)C(=O)C2(C)C)cc1F
active: [1] Dose-dependent effect | [2] Dose-dependent effect | [3] Dose-dependent effect | [4] Dose-dependent effect

CC1(C)C(=O)N(c2cccc(S(F)(F)(F)(F)F)c2)C(=S)N1c1cccc(C(F)(F)F)c1
active: [1] Dose-dependent effect | [2] Dose-dependent effect | [3] Dose-dependent effect | [4] Dose-dependent effect

CC(O)(CSc1cc(C(F)(F)F)cc(C(F)(F)F)c1)C(=O)Nc1cccc(S(F)(F)(F)(F)F)c1 (configuration not stated)
active: [1] Dose-dependent effect | [2] Dose-dependent effect | [3] Dose-dependent effect | [4] Dose-dependent effect

CC1(C)C(=O)N(c2ccc(S(F)(F)(F)(F)F)cc2)C(=S)N1c1cccc(C(F)(F)F)c1
active: [1] Dose-dependent effect | [2] Dose-dependent effect | [3] Dose-dependent effect | [4] Dose-dependent effect

CC1(C)C(=O)N(c2ccc(S(F)(F)(F)(F)F)cc2)C(=S)N1c1ccc(C(F)(F)F)cc1
active: [1] Dose-dependent effect | [2] Dose-dependent effect | [3] Dose-dependent effect | [4] Dose-dependent effect

CNC(=O)c1ccc(N2C(=S)N(c3ccc(S(F)(F)(F)(F)F)cc3)C(=O)C2(C)C)cc1F
active: [1] Dose-dependent effect | [2] Dose-dependent effect | [3] Dose-dependent effect | [4] Dose-dependent effect

CC1(C)C(=O)N(c2ccc([N+](=O)[O-])cc2C(F)(F)F)C(=S)N1c1cccc(S(F)(F)(F)(F)F)c1
active: [1] Dose-dependent effect | [2] Dose-dependent effect | [3] Dose-dependent effect | [4] Dose-dependent effect

CC(O)(CSc1ccccc1C(F)(F)F)C(=O)Nc1ccc(S(F)(F)(F)(F)F)cc1 (racemic)
active: [1] Dose-dependent effect | [2] Dose-dependent effect | [3] Dose-dependent effect | [4] Dose-dependent effect

CC(O)(CSc1ccc(S(F)(F)(F)(F)F)cc1)C(=O)Nc1ccc([N+](=O)[O-])c(C(F)(F)F)c1 (racemic)
active: [1] Dose-dependent effect | [2] Dose-dependent effect | [3] Dose-dependent effect | [4] Dose-dependent effect

CC(O)(CSc1cccc(S(F)(F)(F)(F)F)c1)C(=O)Nc1ccc(C#N)cc1C(F)(F)F (racemic)
active: [1] Dose-dependent effect | [2] Dose-dependent effect | [3] Dose-dependent effect | [4] Dose-dependent effect

CC(O)(CSc1ccc(C(F)(F)F)cc1)C(=O)Nc1ccc(S(F)(F)(F)(F)F)cc1 (racemic)
active: [1] Dose-dependent effect | [2] Dose-dependent effect | [3] Dose-dependent effect | [4] Dose-dependent effect

CC(O)(CSc1cccc(C(F)(F)F)c1)C(=O)Nc1ccc(S(F)(F)(F)(F)F)cc1 (racemic)
active: [1] Dose-dependent effect | [2] Dose-dependent effect | [3] Dose-dependent effect | [4] Dose-dependent effect

CC(O)(CSc1cccc(S(F)(F)(F)(F)F)c1)C(=O)Nc1ccc([N+](=O)[O-])c(C(F)(F)F)c1 (racemic)
active: [1] Dose-dependent effect | [2] Dose-dependent effect | [3] Dose-dependent effect | [4] Dose-dependent effect

CC(O)(CSc1ccc(F)cc1)C(=O)Nc1ccc(S(F)(F)(F)(F)F)cc1 (racemic)
active: [1] Dose-dependent effect | [2] Dose-dependent effect | [3] Dose-dependent effect | [4] Dose-dependent effect

CC(O)(CSc1ccc(S(F)(F)(F)(F)F)cc1)C(=O)Nc1ccc([N+](=O)[O-])cc1C(F)(F)F (racemic)
active: [1] Dose-dependent effect | [2] Dose-dependent effect | [3] Dose-dependent effect | [4] Dose-dependent effect

CC(O)(CSc1ccc(S(F)(F)(F)(F)F)cc1)C(=O)Nc1ccc(C#N)cc1C(F)(F)F (racemic)
active: [1] Dose-dependent effect | [2] Dose-dependent effect | [3] Dose-dependent effect | [4] Dose-dependent effect

CC(O)(CSc1cccc(S(F)(F)(F)(F)F)c1)C(=O)Nc1ccc([N+](=O)[O-])cc1C(F)(F)F (racemic)
active: [1] Dose-dependent effect | [2] Dose-dependent effect | [3] Dose-dependent effect | [4] Dose-dependent effect

CC(O)(CSc1cccc(S(F)(F)(F)(F)F)c1)C(=O)Nc1ccc(C#N)c(C(F)(F)F)c1 (racemic)
active: [1] Dose-dependent effect | [2] Dose-dependent effect | [3] Dose-dependent effect | [4] Dose-dependent effect

CC(O)(CSc1cccc(S(F)(F)(F)(F)F)c1)C(=O)Nc1ccc(S(F)(F)(F)(F)F)cc1 (racemic)
active: [1] Dose-dependent effect | [2] Dose-dependent effect | [3] Dose-dependent effect | [4] Dose-dependent effect

CC(O)(CSc1ccc(S(F)(F)(F)(F)F)cc1)C(=O)Nc1ccc(S(F)(F)(F)(F)F)cc1 (racemic)
active: [1] Dose-dependent effect | [2] Dose-dependent effect | [3] Dose-dependent effect | [4] Dose-dependent effect

CC(O)(CSc1ccc(S(F)(F)(F)(F)F)cc1)C(=O)Nc1ccc(C#N)c(C(F)(F)F)c1 (racemic)
active: [1] Dose-dependent effect | [2] Dose-dependent effect | [3] Dose-dependent effect | [4] Dose-dependent effect
